Target: Mu-type opioid receptor (Rattus norvegicus, UniProt P33535)
Assay: Antagonist activity of compound on agonist stimulated [35S]GTP-gamma-S binding on mu-opioid receptor
Type: functional

Chains of the proteins cited; added tags and fusions are not shown.
UniProt P33535, whole entry: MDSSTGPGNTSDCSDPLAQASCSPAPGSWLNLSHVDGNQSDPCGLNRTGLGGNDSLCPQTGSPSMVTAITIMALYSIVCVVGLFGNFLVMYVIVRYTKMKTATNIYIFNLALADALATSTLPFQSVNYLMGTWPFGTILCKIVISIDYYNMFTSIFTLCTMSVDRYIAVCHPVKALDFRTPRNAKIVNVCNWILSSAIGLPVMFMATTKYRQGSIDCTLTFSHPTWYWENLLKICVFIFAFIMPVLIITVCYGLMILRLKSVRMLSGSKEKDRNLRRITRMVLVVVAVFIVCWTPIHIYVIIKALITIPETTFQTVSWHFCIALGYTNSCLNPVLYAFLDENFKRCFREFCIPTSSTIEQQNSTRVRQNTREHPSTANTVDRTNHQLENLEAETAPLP

Cl.Oc1ccc2c3c1O[C@H]1c4[nH]c5ccccc5c4C[C@@]4(O)[C@@H](C2)N(CC2CC2)CC[C@]314 [NALTRINDOLE HYDROCHLORIDE]
Ki: 4.3 nM

Reference: ChEMBL document CHEMBL1134413, “Effect of N-alkyl and N-alkenyl substituents in noroxymorphindole, 17-substituted-6,7-dehydro-4,5alpha-epoxy-3,14-dihydroxy-6,7:2',3'-indolomorphinans, on opioid receptor affinity, selectivity, and efficacy” (J Med Chem, 2001)
